Molecular target: Tyrosine-protein kinase BTK (Homo sapiens, UniProt Q06187)
Test: Inhibition of BTK (unknown origin) incubated for 40 mins by radiometric kinase assay

Sequences of proteins named here, by UniProt entry; tags and fusion partners are left off. A change or cut given only in a name is not applied to a line headed by its entry.
UniProt Q06187: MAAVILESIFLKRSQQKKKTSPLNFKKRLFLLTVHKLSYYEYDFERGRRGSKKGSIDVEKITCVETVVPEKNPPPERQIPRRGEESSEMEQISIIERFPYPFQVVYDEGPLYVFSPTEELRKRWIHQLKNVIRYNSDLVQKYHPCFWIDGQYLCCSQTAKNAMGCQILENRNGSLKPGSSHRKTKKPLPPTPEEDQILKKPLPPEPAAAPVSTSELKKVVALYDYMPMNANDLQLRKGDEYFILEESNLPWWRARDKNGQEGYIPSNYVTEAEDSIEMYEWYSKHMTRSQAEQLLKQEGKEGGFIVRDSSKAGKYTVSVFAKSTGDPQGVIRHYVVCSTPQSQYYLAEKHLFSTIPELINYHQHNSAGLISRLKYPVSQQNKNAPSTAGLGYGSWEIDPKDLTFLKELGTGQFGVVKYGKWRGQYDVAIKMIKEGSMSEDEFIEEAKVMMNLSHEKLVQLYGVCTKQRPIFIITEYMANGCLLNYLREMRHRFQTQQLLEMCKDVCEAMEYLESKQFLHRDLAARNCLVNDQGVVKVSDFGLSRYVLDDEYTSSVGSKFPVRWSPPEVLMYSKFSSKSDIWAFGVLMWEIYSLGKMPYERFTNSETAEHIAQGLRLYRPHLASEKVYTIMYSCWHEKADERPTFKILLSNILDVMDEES

IC50: 54 nM
SMILES: C=CC(=O)Nc1cccc(Nc2nc(Nc3ccc(OCCOC)cc3)ncc2F)c1 [SPEBRUTINIB]
